# Binding of CDR-mutated scFvs to a peptide of the spike HR2 region

The target is the same throughout: PDVDLGDISGINAS, from the HR2 region of SARS-CoV-2 spike.

Each scFv is VH, the linker GGGGSGGGGSGGGGS, VL, as in the parent Ab-14, and differs from it in the CDRs of the light chain only.
VH: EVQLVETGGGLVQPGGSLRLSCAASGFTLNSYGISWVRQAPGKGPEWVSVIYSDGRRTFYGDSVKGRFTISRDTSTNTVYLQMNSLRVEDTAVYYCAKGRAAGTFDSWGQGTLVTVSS
VL: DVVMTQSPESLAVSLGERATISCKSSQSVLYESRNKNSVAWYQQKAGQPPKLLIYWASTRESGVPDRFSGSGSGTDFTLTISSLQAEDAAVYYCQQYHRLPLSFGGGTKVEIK

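The library (AAYL50) carries one to three amino acid substitutions per variant, with no insertions or deletions. Affinity was read by AlphaSeq, a pooled yeast mating assay with surface-displayed partners. Pairs that bind mate more often; barcode pairs of the diploids are counted by sequencing. A regression on co-assayed BCL2-family reference pairs converts the normalised counts of each replicate to an apparent Kd. Mating was done three times.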

Sequences are complete VL domains.
Values are log10 of the apparent Kd in nM; lower means stronger binding.
Averages over replicates are reported, and they cover detected replicates only.
"ND" means that the variant was in the library but no mating with the target was seen in that replicate; the authors take this as a sign of poor binding, and no number exists.
For reference, the parent read 0.65 as the reference entry and 1.68 as a member of this library.
As a blank, each scFv also met three strains without target: over library AAYL50, 18% of these pairings were detected, typically at 4.19 and seldom below 2.99. Also given: how often the same scFv was detected with the empty control strains, with their mean in brackets.

| VL | replicates, log10 nM | log10 Kd (nM), mean | empty controls |
|---|---|---|---|
| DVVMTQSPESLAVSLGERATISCKSSQSRLYESRNKWSVAWYQQKAGQPPKLLIYWASTRESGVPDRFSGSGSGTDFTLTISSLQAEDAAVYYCQQYHRLELSFGGGTKVEIK | 1.85 2.99 ND | 2.42 | 0 of 9 |
| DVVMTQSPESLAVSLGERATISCKSSQDVKYESRNDNSVAWYQQKAGQPPKLLIYWASTRESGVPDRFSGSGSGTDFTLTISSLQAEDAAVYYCQQYHRLPLSFGGGTKVEIK | 0.64 0.90 1.08 | 0.87 | 3 of 9 (4.07) |
| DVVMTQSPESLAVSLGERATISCKSSTSVLYESRNKNSVAWYQQKAGQPPKLLIYWASTRESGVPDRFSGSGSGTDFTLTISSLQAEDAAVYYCQQYHRLDLSFGGGTKVEIK | 1.49 1.67 1.66 | 1.61 | 5 of 9 (4.82) |
| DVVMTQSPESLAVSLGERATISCKSSQSTLYESRNTNQVAWYQQKAGQPPKLLIYWASTRESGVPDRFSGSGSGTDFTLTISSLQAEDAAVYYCQQYHRLPLSFGGGTKVEIK | 0.84 2.44 1.06 | 1.45 | 0 of 9 |
| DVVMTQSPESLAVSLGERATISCKSSQSVLYESRNKNSVAWYQQKAGQPPKLLIYWASTRESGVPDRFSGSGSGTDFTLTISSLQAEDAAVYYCQQYHRLPLEFGGGTKVEIK | 0.86 0.93 0.88 | 0.89 | 0 of 9 |
| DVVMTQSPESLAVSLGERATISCKSSQPVLYESRNKNSVAWYQQKAGQPPKLLIYWASTRESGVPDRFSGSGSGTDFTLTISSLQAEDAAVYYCQQYHHLPLSFGGGTKVEIK | 0.45 0.74 0.77 | 0.66 | 0 of 9 |
| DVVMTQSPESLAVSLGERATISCKDSQSVLEESRNKNSVAWYQQKAGQPPKLLIYWASTRESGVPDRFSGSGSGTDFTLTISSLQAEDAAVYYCQQYHRRPLSFGGGTKVEIK | 2.04 2.17 2.55 | 2.25 | 1 of 9 (3.00) |
| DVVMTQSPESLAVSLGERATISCKSEQSVFYESRNKNSVAWYQQKAGQPPKLLIYWASTRESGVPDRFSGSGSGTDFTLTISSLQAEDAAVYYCQVYHRLPLSFGGGTKVEIK | 1.06 1.29 1.18 | 1.18 | 4 of 9 (4.53) |
| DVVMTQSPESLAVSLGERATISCKSSQSVLYESRNTNSVAWYQQKAGQPPKLLIYWASTRESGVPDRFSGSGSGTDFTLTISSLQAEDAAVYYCQQYCQLPLSFGGGTKVEIK | 2.31 2.39 2.61 | 2.44 | 0 of 9 |
| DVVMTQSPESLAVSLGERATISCKSLQSVLYESRNKNSVYWYQQKAGQPPKLLIYWASTRESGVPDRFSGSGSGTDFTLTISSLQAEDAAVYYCQQYHRLPLSFGGGTKVEIK | 4.49 4.63 ND | 4.56 | 5 of 9 (4.41) |
| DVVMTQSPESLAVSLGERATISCKSSQSVLYESTNKNSVAWYQQKAGQPPKLLIYVASTRISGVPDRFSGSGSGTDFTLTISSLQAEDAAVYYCQQYHRLPLSFGGGTKVEIK | 1.70 1.94 2.04 | 1.90 | 2 of 9 (3.86) |
| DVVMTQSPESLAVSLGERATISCKSSQSVLYESRNKRSVAWYQQKAGQPPKLLIYGASTRESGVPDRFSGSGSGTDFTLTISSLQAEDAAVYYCQPYHRLPLSFGGGTKVEIK | 3.90 3.40 4.25 | 3.85 | 4 of 9 (4.73) |
| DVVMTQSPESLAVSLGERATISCVSSQSVTYESRNKNSVAWYQQKAGQPPKLLIYWASTRESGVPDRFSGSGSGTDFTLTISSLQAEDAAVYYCRQYHRLPLSFGGGTKVEIK | 5.18 3.24 ND | 4.21 | 0 of 9 |
| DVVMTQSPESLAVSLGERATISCKSSQSVLYESRNKNSVCWYQQKAGQPPKLLIYEESTRESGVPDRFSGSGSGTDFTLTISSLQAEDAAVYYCQQYHRLPLSFGGGTKVEIK | 0.78 1.32 0.83 | 0.98 | 0 of 9 |
| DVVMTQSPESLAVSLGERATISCKSLQSVLVESRNKNSVAWYQQKAGQPPKLLIYYASTRESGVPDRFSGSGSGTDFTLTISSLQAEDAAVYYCQQYHRLPLSFGGGTKVEIK | 0.33 0.62 0.51 | 0.48 | 2 of 9 (4.92) |

The first 2 entries again:

VL	replicates, log10 nM	log10 Kd (nM), mean	empty controls
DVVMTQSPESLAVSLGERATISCKSSQSRLYESRNKWSVAWYQQKAGQPPKLLIYWASTRESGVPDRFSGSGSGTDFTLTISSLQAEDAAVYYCQQYHRLELSFGGGTKVEIK	1.85 2.99 ND	2.42	0 of 9
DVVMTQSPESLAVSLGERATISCKSSQDVKYESRNDNSVAWYQQKAGQPPKLLIYWASTRESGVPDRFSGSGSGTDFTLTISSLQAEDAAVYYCQQYHRLPLSFGGGTKVEIK	0.64 0.90 1.08	0.87	3 of 9 (4.07)

Values reported by Engelhart et al. 2022, doi:10.1038/s41597-022-01779-4 (FLAb copy).